The values that follow come from patent publication US20250340902A1, “GENE THERAPY FOR BVES-RELATED DISORDERS” (OHIO STATE INNOVATION FOUNDATION, priority 2022, published 2025).

Protein sequences, listed by entry. Tags and fused reporters are not part of them. Residues count along the entry.
UniProt Q6PHZ2, 2-499 limits assumed, stated change not applied: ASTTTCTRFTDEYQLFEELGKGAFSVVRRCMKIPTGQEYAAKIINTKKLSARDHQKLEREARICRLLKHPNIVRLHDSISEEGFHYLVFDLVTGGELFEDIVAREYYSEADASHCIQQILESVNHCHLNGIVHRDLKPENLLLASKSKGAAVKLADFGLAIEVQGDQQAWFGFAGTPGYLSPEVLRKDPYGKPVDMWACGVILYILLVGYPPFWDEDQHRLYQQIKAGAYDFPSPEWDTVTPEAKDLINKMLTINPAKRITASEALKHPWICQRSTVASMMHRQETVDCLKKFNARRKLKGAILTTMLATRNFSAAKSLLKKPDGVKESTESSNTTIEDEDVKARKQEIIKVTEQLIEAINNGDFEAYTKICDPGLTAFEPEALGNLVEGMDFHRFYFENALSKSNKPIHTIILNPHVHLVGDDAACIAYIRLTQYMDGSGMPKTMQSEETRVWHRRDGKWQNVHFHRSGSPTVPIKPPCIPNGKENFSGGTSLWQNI

This assay addresses Calcium/calmodulin-dependent protein kinase type II subunit delta (Mus musculus) (UniProt Q6PHZ2). In words: anti-HA co-IP from muscle, MS; CTRL 0.

On to “human BVES fused with 3xHA tag (from UniProt Q8NE79 1-360)”, for which the AAV9-BVES-HA (IP-MS count) worked out at 7.
